Target: PI3Kγ (Homo sapiens (Human), UniProt P48736)
Test: High Throughput PI3K Lipid Kinase Assay (scintillation proximity assay)
Assay type: biochemical
Settings: Human recombinant GST-PI3Kγ, SPA
Source text: a) High Throughput PI3K Lipid Kinase Assay (Binding Assay): The efficacy of compounds of the invention in inhibiting the PI3K induced-lipid phosphorylation may be tested in the following binding assay. The assay combines the scintillation proximity assay technology (SPA, Amersham) with the capacity of neomycin (a polycationic antibiotic) to bind phospholipids with high affinity and specificity. The Scintillation Proximity Assay is based on the properties of weakly emitting isotopes (such as ^3H, ^125I, ^33P). Coating SPA beads with neomycin allows the detection of phosphorylated lipid substrates after incubation with recombinant PI3K and radioactive ATP in the same well, by capturing the radioactive phospholipids to the SPA beads through their specific binding to neomycin. […] After incubation at room temperature for 180 minutes, with gentle agitation, the reaction is stopped by addition of 60 μl of a solution containing 100 μg of neomycin-coated PVT SPA beads in PBS containing ATP 10 mM and EDTA 5 mM. The assay is further incubated at room temperature for 60 minutes with gentle agitation to allow binding of phospholipids to neomycin-SPA beads. After precipitation of the neomycin-coated PVT SPA beads for 5 minutes at 1500×g, radioactive PtdIns(3)P is quantified by scintillation counting in a Wallac MicroBetaTM plate counter. […]

Chains of the proteins cited; added tags and fusions are not shown. Lines headed by an entry give the natural chain unless they say otherwise; changes in a name come on top.
UniProt P48736: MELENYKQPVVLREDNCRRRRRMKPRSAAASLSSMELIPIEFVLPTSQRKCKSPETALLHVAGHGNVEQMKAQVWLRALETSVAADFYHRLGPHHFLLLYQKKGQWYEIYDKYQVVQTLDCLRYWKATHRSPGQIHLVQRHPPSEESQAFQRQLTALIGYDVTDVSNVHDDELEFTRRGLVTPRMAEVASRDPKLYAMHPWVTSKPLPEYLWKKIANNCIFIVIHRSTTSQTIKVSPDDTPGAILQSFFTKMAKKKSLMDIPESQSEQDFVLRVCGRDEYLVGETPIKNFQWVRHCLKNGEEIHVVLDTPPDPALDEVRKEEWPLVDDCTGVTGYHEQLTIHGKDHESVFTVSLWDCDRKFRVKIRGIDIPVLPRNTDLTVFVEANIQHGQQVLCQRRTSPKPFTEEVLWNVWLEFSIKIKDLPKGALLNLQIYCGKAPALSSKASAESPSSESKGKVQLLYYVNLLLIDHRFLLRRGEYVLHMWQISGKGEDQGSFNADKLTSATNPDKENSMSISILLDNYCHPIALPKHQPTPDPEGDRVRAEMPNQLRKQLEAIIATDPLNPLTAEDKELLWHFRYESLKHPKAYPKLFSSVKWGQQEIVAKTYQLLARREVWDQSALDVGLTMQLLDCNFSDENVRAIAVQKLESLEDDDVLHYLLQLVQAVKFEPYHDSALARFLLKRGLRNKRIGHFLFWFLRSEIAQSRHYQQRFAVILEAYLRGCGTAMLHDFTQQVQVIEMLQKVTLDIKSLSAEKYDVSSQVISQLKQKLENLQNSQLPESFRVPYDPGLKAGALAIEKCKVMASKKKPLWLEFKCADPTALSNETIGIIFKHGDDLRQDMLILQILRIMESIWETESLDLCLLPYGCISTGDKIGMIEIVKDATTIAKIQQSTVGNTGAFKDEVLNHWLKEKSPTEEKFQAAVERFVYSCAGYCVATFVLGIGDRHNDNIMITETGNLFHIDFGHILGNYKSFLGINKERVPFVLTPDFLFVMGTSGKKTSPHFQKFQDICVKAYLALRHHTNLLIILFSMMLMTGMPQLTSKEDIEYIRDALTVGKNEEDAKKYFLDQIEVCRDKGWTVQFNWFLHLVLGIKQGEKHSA

An IC50 of 10 nM was found for CC(=O)Nc1nc(C)c(-c2csc(Nc3cccc(C(=O)O)c3)n2)s1 [Example 1] in this work.

Source: US8802861B2, “Thiazole derivatives and use thereof” (Merck Serono SA, priority 2004, dated 2014)
